## Binding of CDR-mutated scFvs to a peptide of the spike HR2 region

Target: peptide PDVDLGDISGINAS, taken from heptad repeat 2 (HR2) of SARS-CoV-2 spike.

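The parent was found by panning a naive human phage display library on the peptide. Designed CDR sequences, proposed from the first random library and measured here. Their group label is 14L_GP_HC (GP: Gaussian process model; HC: hill climbing; a sequence that several methods proposed may carry one label only). In AlphaSeq, yeast of one mating type display the scFv and yeast of the other type display the target. Mating (16 h, 30 °C) was followed by selection of diploids and sequencing of their barcodes. A regression on co-assayed BCL2-family reference pairs converts the normalised counts of each replicate to an apparent Kd. Each pool was mated in six replicate cultures.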

Parent scFv Ab-14: VH joined to VL by three GGGGS repeats. Changes lie in the light chain CDRs alone.
VH: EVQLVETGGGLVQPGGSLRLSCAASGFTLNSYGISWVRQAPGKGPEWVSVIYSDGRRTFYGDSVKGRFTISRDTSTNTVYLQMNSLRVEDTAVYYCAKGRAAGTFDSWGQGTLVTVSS
VL: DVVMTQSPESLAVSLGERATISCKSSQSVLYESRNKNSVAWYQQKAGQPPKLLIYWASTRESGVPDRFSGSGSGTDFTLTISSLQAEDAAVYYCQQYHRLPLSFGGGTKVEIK

Each variant is given by its three light chain CDRs, as the data file delimits them; those of the parent are KSSQSVLYESRNKNSVA, WASTRES, QQYHRLPLS. The read-out is the apparent dissociation constant on a log10 scale (nM): the lower, the stronger. A mean of the replicates is given; it leaves out those without a signal. An entry "nd" has no value in the source: the pair was not observed among the diploids in that replicate. This suggests poor binding but is not conclusive. The authors' rule: three or more of the six replicates give a measured affinity, fewer mean a poor binder. Values of this round are not directly comparable with the first-round values of the same sequences. Nonspecific signal, from three strains lacking the peptide, appeared in 4% of pairings of all light chain designs, centred on 2.64 (5% of these signals below 1.59); values are not corrected for it. For each scFv, signals with the empty controls are counted beside the result, with their mean in brackets. The parent sequence was in this pool as ten entries: three were never detected, three once, and four in most replicates, with averages from 0.34 to 2.37.

CDR-L1 | CDR-L2 | CDR-L3 | log10 Kd, replicates | mean log10 Kd (nM) | control signals
KSGQGALYESRNKNSVA | GASTRES | QQYHRLPLS | 0.11 -0.02 -0.04 0.00 -0.03 -0.02 | 0.00 | 1/18 (2.89)
KSSQSVAPESRNANSVA | DASTRES | QQYHRLPLS | 0.37 0.34 0.38 0.07 0.24 0.39 | 0.30 | 0/18
KMSQSVLMEARNKNSVA | DASLRES | QQYHRLPLS | -0.14 0.09 -0.21 -0.50 -0.22 -0.22 | -0.20 | 1/18 (1.50)
KVSQSVPYESRMKNSVA | DASTRCS | QQYHRLPLE | -0.07 -0.06 -0.16 -0.23 -0.38 0.04 | -0.14 | 3/18 (3.11)
KSSQSYLIESRNKNSVA | EASTRES | QQYHRLPLS | 1.09 0.82 nd 1.61 0.49 0.66 | 0.93 | 0/18
KLSQSVLFESRNKNSVA | DASFRES | QQYHRLPLS | -0.18 -0.32 -0.25 -0.23 -0.45 -0.11 | -0.26 | 0/18
HSSPSVMYESRNKNSVA | NASTRES | QQYHRLPLS | -0.22 -0.64 0.03 -0.06 -0.18 0.09 | -0.16 | 0/18
KQPQSVLYESRNKNSVA | DASTRES | QQYHRLPLS | 0.04 0.11 -0.06 -0.02 -0.08 0.02 | 0.00 | 4/18 (3.30)
KLRQSTLYESRNDNSVA | WASTRES | QQYHRLPLS | 1.24 1.74 1.48 1.31 1.46 1.43 | 1.44 | 1/18 (2.92)
HSSPSVMYESRNKNSVA | EASTRES | QQYHRLPLS | 0.50 0.74 0.13 0.52 0.56 0.89 | 0.56 | 0/18
KESQSDLYESRNKNSVA | GASTRES | QQYHRLPLS | 0.68 0.33 0.36 0.30 0.33 0.58 | 0.43 | 2/18 (2.73)
KMSQGVLYESRNKNNVA | GASTRES | QQYHRLPLS | 0.16 0.22 -0.12 -0.04 -0.03 0.16 | 0.06 | 0/18
KSSQSELFESRNKNSVA | DASTREA | QQYHRLPLS | -0.13 -0.52 -0.47 -0.32 -0.38 -0.30 | -0.35 | 1/18 (2.70)
HLSWVVLQESRNKNSVA | NASTRES | QQYHRLPLS | 0.37 0.42 0.23 0.12 0.19 0.57 | 0.32 | 2/18 (2.35)
KSSQSWLYESRNKNSVA | QASTREQ | QQYHRLPLS | 0.06 -0.30 0.30 0.09 0.44 -0.21 | 0.06 | 1/18 (0.97)
KFSQSQLYESRTKNGVA | NASTRES | QQYHRLPLS | 0.20 -0.06 -0.26 -0.29 -0.17 0.22 | -0.06 | 1/18 (2.73)
KSSISYLYESRAKNSVA | EASTRES | QQYHRLPLS | 0.15 0.35 -0.21 -0.31 -0.01 -0.22 | -0.04 | 1/18 (2.76)
KFSQSVLYESRNKNSVA | NAVTRET | QQYHRLPLS | -0.24 -0.48 -0.64 -0.70 -0.29 -0.34 | -0.45 | 1/18 (1.61)
KMSQSWIYESRNKNSVA | GASTRES | QQYHRLPLS | -0.25 -0.61 -0.29 -0.65 -0.61 -0.44 | -0.48 | 1/18 (1.91)
VSSQSFLYESRNKNSVA | GASTRES | QQYHRLPLS | 0.10 0.36 0.29 0.00 -0.01 0.15 | 0.15 | 2/18 (2.54)
KLSQSWLYESRVKNSVA | GASTRES | QQYHRLPLS | -0.02 -0.12 -0.19 -0.40 -0.28 0.00 | -0.17 | 2/18 (3.00)
KFGQGVLYESRNKNSVA | GASLRES | QQYHRLPLS | 0.23 0.08 0.06 -0.27 -0.01 0.28 | 0.06 | 1/18 (1.99)
KSLQSVLYESRNKNNVA | AASTRED | QQYARLPLS | 0.21 0.01 -0.10 -0.10 0.27 -0.02 | 0.04 | 0/18
KYSQSWLYESRNKNSVA | GASAREV | QQYHRLPLS | 0.12 0.60 0.19 0.48 0.30 0.82 | 0.42 | 0/18
KQSQSVLQESRNKNSVA | DASTRES | QQYHRLPLS | -0.16 -0.16 -0.33 -0.24 -0.37 0.00 | -0.21 | 1/18 (2.93)
KSSISYLRESRNMNSVA | EASTREQ | QQYHRLPLS | 0.48 0.18 0.16 -0.10 0.03 0.34 | 0.18 | 0/18
SLMQSVLYESRNKNSVA | HASYRED | QQYHRLPLS | 0.20 0.24 0.09 0.01 -0.04 -0.03 | 0.08 | 0/18
KVSQSVLYESRMKNSVA | DASTRMS | QQYHRLPLS | 0.11 -0.13 -0.20 -0.24 -0.17 0.08 | -0.09 | 1/18 (2.55)
KHSGSYLYESRNKNSVA | EASTRES | QQYHRLPLS | 0.07 0.29 -0.02 0.21 0.19 0.33 | 0.18 | 0/18
KMEQGVWYESRNKNSVA | GASVRES | QQYHRLPLS | 0.12 -0.05 -0.13 -0.27 -0.23 -0.03 | -0.10 | 2/18 (2.90)
KVSQSVLFEWRNKNSVA | DASTRES | QQYHRLPLS | 0.19 0.17 -0.12 -0.28 -0.11 -0.04 | -0.03 | 1/18 (2.34)
KQSISYLEESRNKNSVA | EASTRES | QQYHRLPLS | 1.05 0.89 0.98 1.48 1.03 1.89 | 1.22 | 0/18
KLSQSVLYESRTKNSVA | EASTRES | QQYHRLPLS | 0.10 -0.51 -0.52 -0.69 -0.52 -0.38 | -0.42 | 0/18
KFSQSVAYESRNKNSVA | MASTRES | QQYHRLPLS | 0.83 0.87 0.33 0.40 0.72 0.80 | 0.66 | 1/18 (3.20)
KSSDSELYESRNKNSVA | EASTRES | QQYHRLPLS | 0.29 0.00 0.10 -0.22 -0.15 0.13 | 0.03 | 1/18 (2.79)
IAKQSWLYESRNKNSVA | GASTRES | QQYHRLPLI | 0.53 0.21 0.11 -0.09 0.18 0.22 | 0.19 | 1/18 (2.36)
KMEQGGLYESRNKGSVA | GASVRES | QQYHRLPLS | 0.23 0.21 -0.06 -0.02 0.02 0.17 | 0.09 | 1/18 (2.17)
KVSQSWGYESRNKNSVA | GASTRES | QQYHRLPLS | -0.15 -0.16 -0.36 -0.32 -0.26 0.24 | -0.17 | 0/18
KSSISFLYESRNTNSVA | EASTRES | QQYHRLPLS | 0.48 0.65 -0.08 -0.05 0.95 -0.12 | 0.30 | 0/18
HSSPSVEYESRNKNSVA | NASYRES | QQYHRLPLS | 0.45 0.58 0.18 0.48 0.51 0.64 | 0.48 | 0/18
HSSPSVLYESRNKNSVA | YASTRES | QQYHRLPLS | 1.56 1.46 1.26 1.34 1.62 1.65 | 1.48 | 1/18 (2.72)
KQSQSVLYESRNKNAVA | DASTRES | QAYHWLPLS | 0.38 0.38 0.24 0.42 0.26 0.69 | 0.40 | 1/18 (2.49)
KCLQSVLYESRNKNSVA | HASTRED | QQYHQLPLS | 0.26 0.39 0.31 0.18 0.33 0.40 | 0.31 | 1/18 (2.86)
KSSISGLYESRMKNSVA | EASTREV | QQYHRLPLS | 1.71 1.54 1.12 1.16 1.18 1.43 | 1.36 | 0/18
KLSLSVLPESRNKNSVA | NASTRES | QQYHRLPLS | 0.12 0.17 -0.11 -0.20 -0.01 0.37 | 0.06 | 0/18
HFSQSVLYESRNKNSVA | DASTRES | QQYHRLPLS | -0.22 -0.27 -0.28 -0.57 -0.25 0.07 | -0.25 | 3/18 (2.54)
KSSPSYHYESRNKNSVA | GASTRES | QQYHRLPLS | 0.88 0.69 0.93 0.19 0.34 0.67 | 0.62 | 1/18 (1.77)
KLPQLVLYESRNKNSVA | GASTRES | QQYHRLPLS | -0.07 -0.03 -0.25 -0.38 -0.16 0.07 | -0.14 | 1/18 (2.26)
KSSISYLEESRNKNSVA | EASTRER | QQYHRLPLS | 0.43 0.04 0.05 0.09 0.11 0.34 | 0.18 | 1/18 (2.20)
KQSQSELYESVNKNSVA | DASTRES | QQYHRLPLS | 0.26 -0.04 -0.17 -0.26 -0.05 0.05 | -0.03 | 0/18
KLSQSWLYESRNKNSVA | GGNTRES | QQYHRLPLS | -0.22 -0.43 -0.59 -0.70 -0.56 -0.29 | -0.46 | 1/18 (2.42)

Extract of 3 entries:

CDR-L1 | CDR-L2 | CDR-L3 | log10 Kd, replicates | mean log10 Kd (nM) | control signals
KMSQSVLMEARNKNSVA | DASLRES | QQYHRLPLS | -0.14 0.09 -0.21 -0.50 -0.22 -0.22 | -0.20 | 1/18 (1.50)
KVSQSWGYESRNKNSVA | GASTRES | QQYHRLPLS | -0.15 -0.16 -0.36 -0.32 -0.26 0.24 | -0.17 | 0/18
KFSQSQLYESRTKNGVA | NASTRES | QQYHRLPLS | 0.20 -0.06 -0.26 -0.29 -0.17 0.22 | -0.06 | 1/18 (2.73)

Source: Li et al. 2023 (doi:10.1038/s41467-023-39022-2), MIT Lincoln Laboratory and A-Alpha Bio; data file from the FLAb repository.